Experimental data published in the supplement of paper PMC13380429.

What was measured:
Details in all cases: 72 h
Vero E6 [1] = assay: cell viability relative to DMSO; higher = less toxic
HepG2 [2] = assay: as above
Calu-3 [3] = assay: as above
Caco-2 [4] = assay: as above
Vero E6 [5] = assay: relative viability EC50 (midpoint between 100% and the lowest measured viability); higher = less toxic
HepG2 [6] = assay: as above
Calu-3 [7] = assay: as above
Caco-2 [8] = assay: as above
Vero E6 [9] = assay: drug sensitivity score (DSS) for viability; higher = more toxic; extreme values may be limits of the assay
HepG2 [10] = assay: as above
Calu-3 [11] = assay: as above
Caco-2 [12] = assay: as above

COc1cc(Br)c(C[N+]2(CCOCCC3CCC4CC3C4(C)C)CCOCC2)cc1OC (stereo not drawn) [pinaverium]
cell viability (Vero E6 [1]; 1 nM): 109% | cell viability (Vero E6 [1]; 10 nM): 99.5% | cell viability (Vero E6 [1]; 100 nM): 106% | cell viability (Vero E6 [1]; 1000 nM): 105% | cell viability (Vero E6 [1]; 10000 nM): 96.1% | cell viability (HepG2 [2]; 1 nM): 104% | cell viability (HepG2 [2]; 10 nM): 105% | cell viability (HepG2 [2]; 100 nM): 102% | cell viability (HepG2 [2]; 1000 nM): 104% | cell viability (HepG2 [2]; 10000 nM): 94.6% | cell viability (Calu-3 [3]; 1 nM): 105% | cell viability (Calu-3 [3]; 10 nM): 95.9% | cell viability (Calu-3 [3]; 100 nM): 101% | cell viability (Calu-3 [3]; 1000 nM): 90.8% | cell viability (Calu-3 [3]; 10000 nM): 98% | cell viability (Caco-2 [4]; 1 nM): 104% | cell viability (Caco-2 [4]; 10 nM): 84.9% | cell viability (Caco-2 [4]; 100 nM): 108% | cell viability (Caco-2 [4]; 1000 nM): 79% | cell viability (Caco-2 [4]; 10000 nM): 82.8% | relative viability EC50 (Vero E6 [5]): > 10 µM | relative viability EC50 (HepG2 [6]): > 10 µM | relative viability EC50 (Calu-3 [7]): > 10 µM | relative viability EC50 (Caco-2 [8]): > 10 µM | drug sensitivity score (Vero E6 [9]): 0 | drug sensitivity score (HepG2 [10]): 0 | drug sensitivity score (Calu-3 [11]): 0 | drug sensitivity score (Caco-2 [12]): 2.6
